Key:
PaPPase = target: T1, PaPPase (Pyrobaculum aerophilum, UniProt Q8ZWI8); details: Mg5IDP complex in the active site of both subunits; 2 mM IDP, MES pH 6.5; 3.8-5.3 Å anisotropic
T1 construct: gene hppA

Protein sequences, listed by entry. Tags and fused reporters are not part of them. Residues count along the entry.
UniProt Q9S5X0, 2-726: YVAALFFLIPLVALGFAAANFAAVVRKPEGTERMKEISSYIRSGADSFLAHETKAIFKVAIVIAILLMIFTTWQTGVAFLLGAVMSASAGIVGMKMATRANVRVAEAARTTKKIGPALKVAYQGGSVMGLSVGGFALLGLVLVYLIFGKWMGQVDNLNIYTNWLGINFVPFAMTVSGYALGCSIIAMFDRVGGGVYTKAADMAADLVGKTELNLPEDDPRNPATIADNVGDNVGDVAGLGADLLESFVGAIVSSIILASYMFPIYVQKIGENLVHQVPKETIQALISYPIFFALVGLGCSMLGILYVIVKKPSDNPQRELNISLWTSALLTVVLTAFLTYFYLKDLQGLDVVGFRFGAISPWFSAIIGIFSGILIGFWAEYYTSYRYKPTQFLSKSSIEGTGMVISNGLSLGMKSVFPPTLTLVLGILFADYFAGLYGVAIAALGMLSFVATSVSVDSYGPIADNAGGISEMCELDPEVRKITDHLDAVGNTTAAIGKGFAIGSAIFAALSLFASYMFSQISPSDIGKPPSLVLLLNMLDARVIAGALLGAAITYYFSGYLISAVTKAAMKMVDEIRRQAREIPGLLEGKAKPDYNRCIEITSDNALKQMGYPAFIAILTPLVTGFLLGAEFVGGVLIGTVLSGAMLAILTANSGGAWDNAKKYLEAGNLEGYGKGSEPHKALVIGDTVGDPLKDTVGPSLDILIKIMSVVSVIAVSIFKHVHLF

TmPPase = target: T2, TmPPase (Thermotoga maritima, UniProt Q9S5X0); details: PPi in active site of subunit A only, 600 s after Na+ trigger; 2 mM K4PPi, 20 mM NaCl, 2.4 mM MgCl2, pH 8.0
T2 construct: gene hppA

purified protein = substrate: O=P(O)(O)OP(=O)(O)O; experiment: purified protein; details: substrate counted as Mg2PPi, 0 mM K+, 5 mM free Mg2+, 50 mM MOPS-TMAOH pH 7.2, 40 °C, substrate-inhibition (two-site dimer) fit, stronger site

Molecule: O=P(O)(O)NP(=O)(O)O [IDP]
- X-ray crystal structure (PaPPase): The atomic coordinates and structure factors of the PaPPase:Mg5IDP complex (PDB ID: 8B37)

Molecule: O=P(O)(O)OP(=O)(O)O [pyrophosphate]
- time-resolved cryo-trapping X-ray crystallography (TmPPase): the positive density at the active site of subunit A changed but was still fit best by PPi

B1: PaPPase (Pyrobaculum aerophilum str. IM2) (protein)
chain: NMISYALLGVILGISGVIYAVYLAVWVLRQDPGNEKMRFISQAIATGARAYLFRQYRTLAVLLVILAVLILVAIDMPRRTFGLTALAFIVGALGSMLAGYLGMYVTTRSASRVAQAAATGGMGKALLVSWRAGAVMGLSLASIALLLISGFYLVFRSVLPDDWAVPLVALGFGASLVTLFMRVGGGIYTKAADLGADLVGKVEAGIPEDDPRNPGVIADNVGDNVGDVAGMAADVYESYIVTVTAAIFLAAILGLPTQFIEAIILFAALALVATFAGVNLLKTTGVKHPLSSISLAIYATIGLSVVLFFIGAFTLGLDSTKALALAATTSLGAVIAPLIVKITDYYTSYNYGPVRKIAEQAKISPATVIITGYGVGLMSAIPVIAVIVAVLGISYMIGYYTVPVSGFGELSKYLAGIFGTAMASVGLLVVAGIIITADSYGPVSDNAGGVVEMAGLPDEVREITDVLDSVGNTTKATTKGYAIASAALAALVLFIALIFEIVYSASKILGKGIVDMISESLSGLQLINANVLIGAFLGVALVYFFSSRTLEAVGRTAMEIVEEIRRQFREKPGILEWKEQPDYARVVDIATRRALGEFLIPGLAAIVLPLITGLLLGWNALAGLIMGAIVAGVPRALLMANAGGAWDNAKKYIEIQGLKKTEMHKAAVIGDTVGDPMKDTVGPSLNPLIKVLNTLSVVFTYVIVSTNIALGIWPSGLLPF
- Km (purified protein): 2.42 ± 0.21 µM
